Assay results from publication PMC10017155, “Zn-dependent β-amyloid Aggregation and its Reversal by the Tetrapeptide HAEE” (Aging and Disease, 2023).
Entries after “also recorded” stand apart in the source; their conditions may differ.

What was measured:
Type in all cases: in vivo
C. elegans CL2122 = assay: Lifespan analysis, C. elegans CL2122 (transgenic control); conditions: for Mean survival: Aβ42 or isoD7-Aβ42 40 μM, HAEE 4 mM; for Mean survival / Effect on lifespan: 25°C; for Mean survival / Mean increase/decrease in lifespan: mean ± SD of 3 experiments; for Increase/decrease in lifespan: vs control of same repeat
Method: (§1) C. elegans CL2120 (dvIs14 [(pCL12) unc-54::beta 1-42 +(pCL26) mtl-2::GFP]) and C. elegans CL2122 (dvIs15 [(pPD30.38) unc-54(vector) + (pCL26) mtl-2::GFP]) strains were obtained from the Caenorhabditis Genetics Center. The worms were handled according to standard methods without FUDR [18]. E. coli OP50 bacteria were grown overnight in Luria-Bertani broth and 50µl were spread atop NGM or NGMZn plates. NGMZn has 20μM ZnSO4. Seeded plates were incubated at 30°C for ~16 hours and then for 1-2 hours at 15 or 25°C before worms were transferred. Lifespan and paralysis experiments (see below) were performed at 25°C for enhanced expression of Aβ. This temperature is standard when studying the effects of Aβ on C. elegans CL2120 strain [19].
(§2) Nematodes were purified from unwanted microflora by the alkaline hypochlorite method, grown to the L4 stage at 15°C on NGM plates with bacterial lawn. […] Further, all contents were transferred to Petri plates with NGM or NGMZn with OP50 and placed in a temperature-controlled incubator at 25°C. Next day, worms were transferred onto similar media with a bacterial substrate and the lifespan was determined at 25°C (Supplementary Tables 3, 4).
(§3) Lifespans were monitored at 25°C as described previously. All experiments were repeated at least three times and ≈130 worms were used for each experiment. Details regarding repeated experiments and amounts of animals used for experiments are summarized in Supplementary Tables 3, 4. In all cases, stage L4 worms were used at t = 0 for lifespan analyses and worms were transferred every other day to new agar plates. […] Escaped animals or animals with internal hatching were not included in lifespan calculation. Data was analyzed and Boltzmann sigmoid survival curves generated using the SciDAVis statistical analysis software package. Mean lifespans were compared in Microsoft Excel using the Student t test, applying one-tailed distribution and two-sample equal variance. All lifespan plots represent the composites of all independent experiments tabulated in Supplementary Tables 3, 4. Mean percentage change ±SD of lifespan after treatment, relative to untreated control are indicated in each graph in the same color as the curve.

C. elegans CL2120 [1] = assay: Paralysis assay in C. elegans CL2120; conditions: for Mean fraction of paralyzed: Aβ42 or isoD7-Aβ42 40 μM, HAEE 4 mM, 25°C, mean ± SD of 3 experiments
Method: as §1
Then, nematodes were transferred to Petri plates with NGM or NGMZn and OP-50, placed in a temperature-controlled incubator at 25°C. On the next day, worms were transferred onto similar media with a bacterial substrate and paralyzed nematodes were counted at equal time intervals. […] For the paralysis experiments, we chose the days where we could clearly distinguish between paralysis and mortality. This conformed to the third and fourth days of their adult life. While at least three repeated trials were conducted, each experiment was performed using at least 100 worms. Details regarding repeated experiments and amounts of animals used for experiments are summarized in Supplementary Table 2. Mean fraction of paralyzed worms was compared between groups with two-way ANOVA, accounting for age and treatment. Post-hoc analysis was performed with the Tukey test. Statistical analysis was performed with GraphPad Prism 9.1 software.

C. elegans CL2120 [2] = assay: Lifespan analysis, C. elegans CL2120; conditions: for Mean survival: Aβ42 or isoD7-Aβ42 40 μM, HAEE 4 mM; for Mean survival / Effect on lifespan: 25°C; for Increase/decrease in lifespan: vs control of same repeat
Method: as §1, §2, §3

C. elegans CL2120 [3] = assay: Amyloid load by X-34 staining in C. elegans CL2120
Method: as §1, §2
Post-hoc analysis was performed with the Tukey test.
Figure 2.

[4] = A4 (4 days old), NGM (no Zn), replicate 3
[5] = CL2122, NGM (no Zn), replicate 1
[6] = CL2122, NGM (no Zn), replicate 2
[7] = CL2122, NGM (no Zn), replicate 3
[8] = CL2120, NGM (no Zn), replicate 1
[9] = CL2120, NGM (no Zn), replicate 2
[10] = CL2120, NGM (no Zn), replicate 3

**Q.** `CC(=O)N[C@@H](Cc1c[nH]cn1)C(=O)N[C@@H](C)C(=O)N[C@@H](CCC(=O)O)C(=O)N[C@@H](CCC(=O)O)C(N)=O` [HAEE, Ac-HAEE-NH2] was tested. Which Mean survival (C. elegans CL2122; CL2122, NGMZn (ZnSO4 20 μM)) did it give?
**A.** 8.93 ± 0.15 days

**Q.** And the Fraction of paralyzed (C. elegans CL2120 [1]; [4])?
**A.** 10.8%

**Q.** Which Mean survival (C. elegans CL2122; CL2122, NGM (no Zn)) does the source give for “DAEFRHDSGYEVHHQKL VFFAEDVGSNKGAIIGLMVGGVVIA [Aβ42, synthetic beta-amyloid 1-42 peptide]” here?
**A.** 8.93 ± 0.42 days

**Q.** What about the 50% survival (C. elegans CL2122; [5]) of the same molecule?
**A.** 9.4 days

**Q.** What about the 50% survival (C. elegans CL2122; [6]) of the same molecule?
**A.** 8.6 days

**Q.** And the 50% survival (C. elegans CL2122; [7])?
**A.** 8.8 days

**Q.** And the “Mean increase/decrease in lifespan” value (C. elegans CL2122; CL2122, NGM (no Zn), vs control NGM)?
**A.** -1.50±3.36%

**Q.** What about the Increase/decrease in lifespan (C. elegans CL2122; [5]) of the same molecule?
**A.** 2.17%

**Q.** And the Increase/decrease in lifespan (C. elegans CL2122; [6])?
**A.** -4.44%

**Q.** And the Increase/decrease in lifespan (C. elegans CL2122; [7])?
**A.** -2.22%

**Q.** What about the “Effect on lifespan” value (C. elegans CL2122; CL2122, NGM, without Zn2+) of the same molecule?
**A.** does not affect; also recorded: did not affect the mean lifespan

**Q.** And the Mean survival (C. elegans CL2122; CL2122, NGMZn (ZnSO4 20 μM))?
**A.** 8.97 ± 0.15 days

**Q.** What about the 50% survival (C. elegans CL2122; CL2122, NGMZn, replicate 1) of the same molecule?
**A.** 9.1 days

**Q.** And the 50% survival (C. elegans CL2122; CL2122, NGMZn, replicate 2)?
**A.** 8.8 days

**Q.** What about the 50% survival (C. elegans CL2122; CL2122, NGMZn, replicate 3) of the same molecule?
**A.** 9.0 days

**Q.** What about the “Mean increase/decrease in lifespan” value (C. elegans CL2122; CL2122, NGMZn, vs control NGMZn) of the same molecule?
**A.** -0.68±3.9%

**Q.** What about the Increase/decrease in lifespan (C. elegans CL2122; CL2122, NGMZn, replicate 1) of the same molecule?
**A.** 3.41%

**Q.** And the Increase/decrease in lifespan (C. elegans CL2122; CL2122, NGMZn, replicate 2)?
**A.** -4.35%

**Q.** And the Increase/decrease in lifespan (C. elegans CL2122; CL2122, NGMZn, replicate 3)?
**A.** -1.10%

**Q.** And the “Effect on lifespan” value (C. elegans CL2122; CL2122, NGMZn, with Zn2+ (20 μM))?
**A.** does not affect; also recorded: did not affect the mean lifespan

**Q.** What about the Mean survival (C. elegans CL2120 [2]; CL2120, NGM (no Zn), mean ± SD of 3 experiments) of the same molecule?
**A.** 8.8 ± 0.26 days

**Q.** What about the 50% survival (C. elegans CL2120 [2]; [8]) of the same molecule?
**A.** 8.9 days

**Q.** What about the 50% survival (C. elegans CL2120 [2]; [9]) of the same molecule?
**A.** 9.0 days

**Q.** And the 50% survival (C. elegans CL2120 [2]; [10])?
**A.** 8.5 days

**Q.** And the “Mean increase/decrease in lifespan” value (C. elegans CL2120 [2]; CL2120, NGM (no Zn), vs control NGM, mean ± SD of 3 experiments)?
**A.** 1.54±1.78%

**Q.** And the Increase/decrease in lifespan (C. elegans CL2120 [2]; [8])?
**A.** 3.49%

**Q.** What about the Increase/decrease in lifespan (C. elegans CL2120 [2]; [9]) of the same molecule?
**A.** 1.12%

**Q.** What about the Increase/decrease in lifespan (C. elegans CL2120 [2]; [10]) of the same molecule?
**A.** 0%

**Q.** And the “Effect on lifespan” value (C. elegans CL2120 [2]; CL2120, NGM, without Zn2+)?
**A.** does not affect; also recorded: did not affect the mean lifespan

**Q.** What about the Mean survival (C. elegans CL2120 [2]; CL2120, NGMZn (ZnSO4 20 μM), mean ± SD of 3 (isoD7-Aβ42: 5) experiments) of the same molecule?
**A.** 8.57 ± 0.4 days

**Q.** And the 50% survival (C. elegans CL2120 [2]; CL2120, NGMZn, replicate 1)?
**A.** 8.5 days

**Q.** What about the 50% survival (C. elegans CL2120 [2]; CL2120, NGMZn, replicate 2) of the same molecule?
**A.** 8.2 days

**Q.** And the 50% survival (C. elegans CL2120 [2]; CL2120, NGMZn, replicate 3)?
**A.** 9.0 days

**Q.** And the “Mean increase/decrease in lifespan” value (C. elegans CL2120 [2]; CL2120, NGMZn, vs control NGMZn, mean ± SD of 3 (isoD7-Aβ42: 5) experiments)?
**A.** -1.48±4.09%

**Q.** What about the Increase/decrease in lifespan (C. elegans CL2120 [2]; CL2120, NGMZn, replicate 1) of the same molecule?
**A.** 2.41%

**Q.** What about the Increase/decrease in lifespan (C. elegans CL2120 [2]; CL2120, NGMZn, replicate 2) of the same molecule?
**A.** -5.75%

**Q.** What about the Increase/decrease in lifespan (C. elegans CL2120 [2]; CL2120, NGMZn, replicate 3) of the same molecule?
**A.** -1.10%

**Q.** What about the “Effect on lifespan” value (C. elegans CL2120 [2]; CL2120, NGMZn, with Zn2+ (20 μM)) of the same molecule?
**A.** does not affect; also recorded: did not affect the mean lifespan; also recorded: not detected

**Q.** What about the “Mean fraction of paralyzed” value (C. elegans CL2120 [1]; A3 (3 days old), NGM (no Zn)) of the same molecule?
**A.** 6.2±0.51%

**Q.** And the Fraction of paralyzed (C. elegans CL2120 [1]; A3 (3 days old), NGM (no Zn), replicate 1)?
**A.** 5.6%

**Q.** And the Fraction of paralyzed (C. elegans CL2120 [1]; A3 (3 days old), NGM (no Zn), replicate 2)?
**A.** 6.3%

**Q.** And the Fraction of paralyzed (C. elegans CL2120 [1]; A3 (3 days old), NGM (no Zn), replicate 3)?
**A.** 6.6%

**Q.** And the “Mean fraction of paralyzed” value (C. elegans CL2120 [1]; A3 (3 days old), NGMZn (ZnSO4 20 μM))?
**A.** 4.9±0.4%

**Q.** What about the Fraction of paralyzed (C. elegans CL2120 [1]; A3 (3 days old), NGMZn, replicate 1) of the same molecule?
**A.** 5.3%

**Q.** What about the Fraction of paralyzed (C. elegans CL2120 [1]; A3 (3 days old), NGMZn, replicate 2) of the same molecule?
**A.** 4.8%

**Q.** What about the Fraction of paralyzed (C. elegans CL2120 [1]; A3 (3 days old), NGMZn, replicate 3) of the same molecule?
**A.** 4.5%

**Q.** And the “Mean fraction of paralyzed” value (C. elegans CL2120 [1]; A4 (4 days old), NGM (no Zn))?
**A.** 10.9±0.66%

**Q.** And the Fraction of paralyzed (C. elegans CL2120 [1]; A4 (4 days old), NGM (no Zn), replicate 1)?
**A.** 10.8%

**Q.** And the Fraction of paralyzed (C. elegans CL2120 [1]; A4 (4 days old), NGM (no Zn), replicate 2)?
**A.** 11.6%

**Q.** What about the Fraction of paralyzed (C. elegans CL2120 [1]; [4]) of the same molecule?
**A.** 10.3%

**Q.** What about the “Mean fraction of paralyzed” value (C. elegans CL2120 [1]; A4 (4 days old), NGMZn (ZnSO4 20 μM)) of the same molecule?
**A.** 9.6±0.47%

**Q.** And the Fraction of paralyzed (C. elegans CL2120 [1]; A4 (4 days old), NGMZn, replicate 1)?
**A.** 9.4%

**Q.** What about the Fraction of paralyzed (C. elegans CL2120 [1]; A4 (4 days old), NGMZn, replicate 2) of the same molecule?
**A.** 10.1%

**Q.** And the Fraction of paralyzed (C. elegans CL2120 [1]; A4 (4 days old), NGMZn, replicate 3)?
**A.** 9.2%

**Q.** What about the “Effect on paralysis with Zn2+” value (C. elegans CL2120 [1]; peptide 40 μM + Zn2+, NGMZn) of the same molecule?
**A.** not observed; also recorded: not detected

**Q.** And the “Amyloid load, Aβ42 with Zn2+” value (C. elegans CL2120 [3]; Aβ42 40 µM, NGMZn)?
**A.** did not show any increase in the amyloid load; also recorded: not detected

**Q.** And the “Amyloid load, without Zn2+” value (C. elegans CL2120 [3]; peptide 40 µM, NGM without Zn2+)?
**A.** did not show any increase in the amyloid load
